Assay results published in patent publication US9434716B2, “Antigen binding proteins” (Glaxo Group Limited, priority 2011, dated 2016).

Protein sequences, listed by entry. Tags and fused reporters are not part of them. Residues count along the entry.
UniProt P02743, 20-223: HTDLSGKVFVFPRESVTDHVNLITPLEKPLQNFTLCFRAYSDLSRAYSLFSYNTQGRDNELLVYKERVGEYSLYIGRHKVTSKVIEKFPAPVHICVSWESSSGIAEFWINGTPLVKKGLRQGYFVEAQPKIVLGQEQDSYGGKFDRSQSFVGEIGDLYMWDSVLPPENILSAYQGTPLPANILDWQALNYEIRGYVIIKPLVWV

Molecular target: T1, human SAP (Homo sapiens, UniProt P02743)
T1 construct: from tissue; host or cells: natural human SAP, purified
Assay: Biacore kinetics, human SAP captured on immobilised O-phosphoethanolamine
Type: binding
Conditions: CM5 chip, calcium; bivalent analyte model; 25° C.; for comparison only, avidity effect
Method: O-phosphoethanolamine was immobilised on a Biacore CM5 chip by primary amine coupling in accordance with the manufacturer's instructions. Human SAP was then captured on the surface in the presence of calcium chloride, in order to replicate in the Biacore system in vitro, the precise orientation of SAP molecules bound to amyloid fibrils in vivo. Anti SAP antibodies were then passed over this surface at 256, 64, 16, 4, 1 nM and a binding sensorgrams obtained. Analysis was carried out at 25° C. using 4% BSA, 10 mM Tris, 140 mM NaCl, 2 mM CaCl2, 0.05% surfactant P20, 0.02% Na N3, pH 8.0 as running buffer. […] Data generated were double referenced with a buffer injection over the human SAP surface and analyzed using the bivalent analyte model in the Biacore T100 evaluation software.
Avidity is more likely to have affected antibody dissociation rates, leading to lower calculated KD values. Furthermore, for all the SAP-E antibodies, the dissociation rate (kd) obtained is outside the limit of the Biacore measurement range.

B1: SAP-E chimera: SAP-E chimeric antibody, human IgG1/κ, heavy SEQ ID NO:21, light SEQ ID NO:22 (protein)
chain 1: QASLQQSGTELVRSGASVKMSCKASGFTFATYNMHWIKQTPGQGLEWIGYIYPGDGNANYNQQFKGKATLTADTSSNTAYMQISSLTSEDSAVYFCRDFDYDGGYYFDSWGQGTLVTVSSASTKGPSVFPLAPSSKSTSGGTAALGCLVKDYFPEPVTVSWNSGALTSGVHTFPAVLQSSGSLSSVVTVPSSSLGTQTYICNVNHKPSNTKVDKKVEPKSCDKTHTCPPCPAPELLGGPSVFLFPPKPKDTLMISRTPEVTCVVVDVSHEDPEVKFNWYVDGVEVHNAKTKPREEQYNSYVVSVLTVLHQDWLNGKEYKCKVSNKALPAPIEKTISKAKGQPREPQVYTLPPSRDELTKNQVSLTCLVKGFYPSDIAVEWESNGQPENNYKTTPPVLDSDGSFFKKLTVDKSRWQQGNVFSCSVMHEALHNHYTQKSLSLSPGK
chain 2: DIQMTQSPASLSASVGETVTITCRASENIYSYLAWYQQKQGRSPQLLVHNAKTLAEGVPSRVSGSGSGTHFSLKINGLQPEDFGNYYCQHHYGAPLTFGAGTKLELKRTVAAPSVFIFPPSDEQLKSGTASVVCLLNNFYPREAKVQWKVDNALQSGNSQESVTEQDSKDSTYSLSSTLTLSKADYEKHKVYACEVTHQGLSSPVTKSFNRGEC
Kd: 0.0449 nM
